Tested on: P. putida F1
Test: Growth of P. putida F1 test tube cultures in MMC medium with ICR 191 (mutagenesis procedure 1)
Format: cell-based, Pseudomonas putida
Conditions: 16 to 18 hour incubation, 30° C., dark
Experimental: In procedure 1, cells were grown overnight in TSB at 30° C. and diluted 104 with phosphate buffer (100 mM, pH 7.2). Several 18×150 mm test tubes containing 3 ml of MMC medium plus 0 (control), 10, 20, 30, 40, 50, 75, or 100 mg/l ICR 191 were inoculated with 0.1 ml of the diluted inoculum. Test tube cultures were incubated in the dark at 30° C. with 220 RPM agitation. […] The cells from 20 mg/l ICR 191 culture were harvested by centrifugation, washed twice with phosphate buffer.

SMILES: COc1ccc2nc3cc(Cl)ccc3c(NCCCNCCCl)c2c1 [ICR 191]
- growth of culture (10 mg/l ICR 191): no detectable effect on growth
- growth of culture (20 mg/l ICR 191): approximately half that of the control
- growth of culture (30 mg/l ICR 191): trace of growth
- growth of culture (ICR 191 concentrations above 30 mg/l): completely inhibited growth
